By UniProt entry, the sequences of proteins in these tests, tags left out. Residues count along the entry.
UniProt P08473, 52-750 limits assumed: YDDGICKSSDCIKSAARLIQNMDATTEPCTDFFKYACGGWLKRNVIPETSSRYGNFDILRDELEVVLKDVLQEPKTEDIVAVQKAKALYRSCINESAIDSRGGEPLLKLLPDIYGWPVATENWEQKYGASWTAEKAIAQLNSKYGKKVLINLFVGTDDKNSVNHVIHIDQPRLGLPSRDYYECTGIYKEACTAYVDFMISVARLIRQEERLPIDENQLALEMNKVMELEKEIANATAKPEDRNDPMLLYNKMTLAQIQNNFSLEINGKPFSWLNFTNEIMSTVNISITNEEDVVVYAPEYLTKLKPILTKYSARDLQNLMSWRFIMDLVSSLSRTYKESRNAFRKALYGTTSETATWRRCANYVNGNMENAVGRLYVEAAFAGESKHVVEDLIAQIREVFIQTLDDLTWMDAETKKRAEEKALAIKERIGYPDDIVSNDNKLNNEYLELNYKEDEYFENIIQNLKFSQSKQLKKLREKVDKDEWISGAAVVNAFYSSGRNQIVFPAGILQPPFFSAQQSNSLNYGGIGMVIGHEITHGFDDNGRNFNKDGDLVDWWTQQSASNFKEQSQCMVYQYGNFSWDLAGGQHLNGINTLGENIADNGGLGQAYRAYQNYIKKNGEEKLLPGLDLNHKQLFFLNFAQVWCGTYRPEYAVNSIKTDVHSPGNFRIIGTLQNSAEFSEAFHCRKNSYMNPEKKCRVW

According to patent US8686184B2, “Neprilysin inhibitors” (Theravance, Inc., priority 2011, dated 2014):

These compounds were tested against human neprilysin (EC 3.4.24.11; NEP) (Homo sapiens, UniProt P08473) (assay: In vitro enzyme inhibition assay at human NEP (fluorogenic peptide substrate)). Conditions: recombinant human NEP; 37° C.; substrate Mca-D-Arg-Arg-Leu-Dap-(Dnp)-OH 10 μM; values given as ranges.
Method: In vitro Assays for the Quantitation of Inhibitor Potencies at Human and Rat NEP, and Human ACE
The inhibitory activities of compounds at human and rat neprilysin (EC 3.4.24.11; NEP) and human angiotensin converting enzyme (ACE) were determined using in vitro assays as described below.
Recombinant human NEP and recombinant human ACE were obtained commercially (R&D Systems, Minneapolis, Minn., catalog numbers 1182-ZN and 929-ZN, respectively). The fluorogenic peptide substrate Mca-D-Arg-Arg-Leu-Dap-(Dnp)-OH (Medeiros et al. (1997) Braz. J. Med. Biol. Res. 30:1157-62; Anaspec, San Jose, Calif.) and Abz-Phe-Arg-Lys(Dnp)-Pro-OH (Araujo et al. (2000) Biochemistry 39:8519-8525; Bachem, Torrance, Calif.) were used in the NEP and ACE assays respectively.
The assays were performed in 384-well white opaque plates at 37° C. using the fluorogenic peptide substrates at a concentration of 10 μM in Assay Buffer (NEP: 50 mM HEPES, pH 7.5, 100 mM NaCl, 0.01% polyethylene glycol sorbitan monolaurate (Tween-20), 10 μM ZnSO4; ACE: 50 mM HEPES, pH 7.5, 100 mM NaCl, 0.01% Tween-20, 1 μM ZnSO4).
Test compounds were assayed over the range of concentrations from 10 μM to 20 pM. Test compounds were added to the enzymes and incubated for 30 minute at 37° C. prior to initiating the reaction by the addition of substrate. Reactions were terminated after 20 minutes of incubation at 37° C. by the addition of glacial acetic acid to a final concentration of 3.6% (v/v).
Plates were read on a fluorometer with excitation and emission wavelengths set to 320 nm and 405 nm, respectively Inhibition constants were obtained by nonlinear regression of the data using the equation (GraphPad Software, Inc., San Diego, Calif.): v=v0/[1+(I/K′)] where v is the reaction rate, v0 is the uninhibited reaction rate, I is the inhibitor concentration and K′ is the apparent inhibition constant.
Compounds of the invention were tested in this assay and found to have pKi values at human NEP as follows.
In the case of `O=C(CCCc1ccccc1C(=O)O)N[C@H](Cc1ccccc1)[C@@H](O)C(=O)O`, the “pKi values at human NEP” value is reported as 8.0-8.9. In the case of `CC1=NN(c2ccc(C(=O)N[C@H](Cc3ccccc3Cl)[C@@H](O)C(=O)O)cc2)C(=O)C1`, the “pKi values at human NEP” value is reported as 7.0-7.9. In the case of `O=C(CCCc1ccccc1C(=O)O)N[C@H](Cc1ccccc1Cl)[C@@H](O)C(=O)O`, the “pKi values at human NEP” value is reported as “≧9.0”. With `O=C(N[C@H](Cc1ccccc1)[C@@H](O)C(=O)O)c1ccc(F)c(-c2ccccc2C(=O)O)c1` the “pKi values at human NEP” value was 8.0-8.9. With `O=C(CCCc1ccccc1C(=O)O)N[C@H](Cc1ccccc1C(F)(F)F)[C@@H](O)C(=O)O` the “pKi values at human NEP” value was 8.0-8.9. With `CC1=NN(c2ccc(C(=O)N[C@H](Cc3ccccc3Cl)[C@@H](O)C(=O)NO)cc2)C(=O)C1` the “pKi values at human NEP” value was 8.0-8.9.
